# Measured values from article PMC12256496, “An advancement in developmental and reproductive toxicity (DART) risk assessment: evaluation of a bioactivity and exposure-based NAM toolbox” (Frontiers in Toxicology, 2025).
# Where “and” joins values, the source holds several entries; their conditions need not be identical. Identical values can stand only once. Like-named read-outs stand apart in the source and are kept apart here.
# What was measured:
# rats = details: 2 rat studies; ref Supplementary Data Sheet 1; cited from earlier work
# [1] = test system: human developmental and reproductive toxicity; details: cited from earlier work
# rabbits = test system: rabbits; parameters: method as in Supplementary Data Sheet 1; details: rabbit studies; ref Supplementary Data Sheet 1; cited from earlier work
# [2] = test system: developmental or reproductive toxicity in animal or human; details: evidence of developmental or reproductive toxicity in animal or human, irrespective of exposure/dose; ref Supplementary Data Sheet 1; cited from earlier work
# [3] = ref [15]; cited from earlier work
# [4] = Human in vivo PK data: concentration-dose ratio (CDR) and toxicokinetic variability factor (TKVF); parameters: 95% percentile (Conc-dose-ratio): unit not given here;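 note: Literature-pooled human in vivo PK data, plasma, serum or cord blood concentrations per daily dose, weighted by study population size across non-pregnant, pregnant and fetal groups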
# [5] = Non-Pregnant, combined (oral+IV)
compound,measurement,setting,value
"CCCCC(CC)C(=O)O (centres unmarked) [2-Ethylhexanoic acid (2-EHA), 2-Ethylhexanoic acid]",NOAEL for maternal toxicity,rats,> 250 mg/kg bw/day and 300 mg/kg bw/day
same,Exposure risk (DART risk classification),[1],Uncertain
same,NOAEL for developmental toxicity,rabbits,≥ 250 mg/kg bw/day
same,NOAEL for maternal toxicity,rabbits,25 mg/kg bw/day
same,DART Hazard Call,[2],Toxic
same,Fup,[3],13.16%
"Cc1cc(C(C)(C)C)c(O)c(C(C)(C)C)c1 [Butylated hydroxytoluene (BHT), Butylated hydroxytoluene]",Exposure risk (DART risk classification),"[1]; Cosmetic, aggregate (max 0.8%), dermal, ref Supplementary Data Sheet 1",Low Risk
"CCOC(=O)c1ccccc1C(=O)OCC [Diethyl phthalate (DEP), Diethyl phthalate]",Exposure risk (DART risk classification),"[1]; Cosmetic, aggregate (max 10%), dermal, ref Supplementary Data Sheet 1",Low Risk
CCN(CC)CCNC(=O)c1cc(Cl)c(N)cc1OC [Metoclopramide],Exposure risk (DART risk classification),"[1]; Pharmaceutical, 10 mg/daily, IV, ref Supplementary Data Sheet 1",Uncertain Risk
same,Exposure risk (DART risk classification),"[1]; Pharmaceutical, 60 mg/daily, oral, ref Supplementary Data Sheet 1",High Risk
same,CDR fold difference to non-pregnant,[4]; Fetus population,1.50
same,CDR fold difference to pregnant,[4]; Fetus population,1.04
same,95% percentile (Conc-dose-ratio),"[4]; Foetus, IV",0.05
same,Fold Difference to non-pregnant,"[4]; Foetus, IV",1.50
same,Fold Difference to pregnant,"[4]; Foetus, IV",1.04
same,Mean Conc-dose -ratio,"[4]; Foetus, IV",0.027 uM/(mg/day]
same,CDR fold difference to non-pregnant,[4]; Non-Pregnant population (reference),1.00
same,95% percentile (Conc-dose-ratio),[4]; [5],0.05
same,Fold Difference to non-pregnant,[4]; [5],1.00
same,Mean Conc-dose -ratio,[4]; [5],0.018 uM/(mg/day]
same,CDR fold difference to non-pregnant,[4]; Pregnant population,1.45
same,CDR fold difference to pregnant,[4]; Pregnant population (reference),1.00
same,95% percentile (Conc-dose-ratio),"[4]; Pregnant, IV",0.07
same,Fold Difference to non-pregnant,"[4]; Pregnant, IV",1.45
same,Fold Difference to pregnant,"[4]; Pregnant, IV",1.00
same,Mean Conc-dose -ratio,"[4]; Pregnant, IV",0.026 uM/(mg/day]
CN(CCOc1ccc(CC2SC(=O)NC2=O)cc1)c1ccccn1 (centres unmarked) [Rosiglitazone],Exposure risk (DART risk classification),"[1]; Pharmaceutical, 4 mg/daily, oral, ref Supplementary Data Sheet 1",High Risk
same,CDR fold difference to non-pregnant,"[4]; female, human, in vivo",0.19
same,95% percentile (Conc-dose-ratio),"[4]; female, human, in vivo, po",0.0661
same,Fold Difference to non-pregnant,"[4]; female, human, in vivo, po",0.19
same,Mean Conc-dose -ratio,"[4]; female, human, in vivo, po",0.04 uM/(mg/day]
same,CDR fold difference to non-pregnant,"[4]; human, in vivo",1.00
same,95% percentile (Conc-dose-ratio),"[4]; human, in vivo, po",0.89
same,Fold Difference to non-pregnant,"[4]; human, in vivo, po",1.00
same,Mean Conc-dose -ratio,"[4]; human, in vivo, po",0.21 uM/(mg/day]
same,DART Hazard Call,[2],Toxic
Cn1c(=O)c2[nH]cnc2n(C)c1=O [Theophylline],Exposure risk (DART risk classification),"[1]; Pharmaceutical, 800 mg/daily, IV, ref Supplementary Data Sheet 1",High Risk
same,CDR fold difference to non-pregnant,"[4]; female, human, in vivo",1.58
same,CDR fold difference to pregnant,"[4]; female, human, in vivo",1.00
same,CDR fold difference to pregnant,"[4]; human, in vivo",0.84
same,DART Hazard Call,[2],Toxic
